Most compounds without a hit are left out; they make up all but 2.8% or so of the library.
C2C12 statin – protects C2C12 myotubes from simvastatin toxicity. ATP luminescence, 48 h; scaled: DMSO 0, geranylgeraniol control 100. rescue of ATP level, % at 7.49 µM. actives 0.78% (n = 330,000);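 active = mean ATP rescue above about 67%, or every replicate alone reaching that limit, limit read from the data, passing the limit was not always enough; inconclusive = no clear call, values can overlap the other calls; inactive = mean under the limit and some replicate under it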;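 also: myotubes were challenged with 10 µM simvastatin during compound exposure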
UUG fidelity – modulators of start codon recognition fidelity in yeast; S. cerevisiae UUG-firefly luciferase reporter, luminescence/redox ratio; activity score, % at 18.7 µM; hit rate 0.13% among 350,000; AID 602363;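 active = replicate mean at a twofold rise or more, about +100% in these data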;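 note: firefly luciferase made from a UUG start codon reports start codon fidelity; reporter light over untreated wells divided by growth signal over untreated wells; some hits fall short of that in this replicate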
esBAF inh – blocks esBAF chromatin remodeling in mouse ES cells; Bmi1-luciferase knock-in reporter, 24 h; 100% = twice the neutral-well signal; reporter increase, % at 12.5 µM; AID 602393; actives 2% (n = 350,000); in the data active = activation above about 40%; inconclusive = no clear call, values can overlap the other calls;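 also: a rise in the Bmi1 reporter signal indicates esBAF inhibition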
PglD inh – inhibitors of Campylobacter jejuni PglD acetyltransferase. purified PglD enzyme, DTNB colorimetric CoA detection. inhibition, % at 12.5 µM. actives 0.098% (n = 360,000). AID 602405; in the data active = inhibition above about 16%, passing the limit was not always enough; inconclusive = no clear call, values can overlap the other calls
PGC1a acetyl inh – modulators of PGC1a acetylation; inhibition, % at 15.6 µM; U2OS PGC1a acetylation, AlphaScreen anti-acetyl-lysine; with virally co-expressed GCN5 acetyltransferase; actives 0.17% (n = 350,000); AID 651687;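 active = every replicate shows inhibition of at least 40%; inconclusive = mean inhibition at least 40% but some replicate below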
E-selectin induc – E-selectin induction on HUVECs; P16581; HUVEC E-selectin immunofluorescence imaging; normalized: neutral wells 0, TNF-alpha wells 100; activation, % at 7.58 µM; actives 0.37% (n = 260,000);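 active = mean E-selectin-positive cell signal at least 10% of the positive control, reached in at least 60% of replicates, without over 20% cell loss; inconclusive = no rule given, readout overlaps actives, possibly toxicity-flagged; inactive = the rest, including those meeting only one limit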
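Read-out: % PE-positive cells | Test system: HUVEC | Doses: One compound dose added by pin transfer | Buffer or medium: EGM-2 over gelatin coat | Signal: Immunofluorescence imaging | Benchmarks: TNF-alpha, DMSO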
Large screens that a line does not name were inactive; ! = repeats disagree.

CN(C)C(=O)c1ccc(-c2cc3onc(-c4ccccc4)c3c(=O)n2C)cc1	esBAF inh 54.9
COC(=O)c1ccc(-c2cc3onc(-c4ccccc4)c3c(=O)n2C)cc1	none
CC(C(=O)N1CCCCC1)n1sc2ccccc2c1=O (configuration not stated)	esBAF inh 49.8 (no result: E-selectin induc)
CC(C(=O)N1CCN(C(=O)c2ccco2)CC1)n1sc2ccccc2c1=O (configuration not stated)	none (no result: PGC1a acetyl inh, E-selectin induc)
C[C@@H]1CN([C@@H](C)CO)S(=O)(=O)c2ccc(-c3cccc(F)c3)cc2O[C@@H]1CN(C)CC1CC1	none
CCC(=O)C1CCCN(C(=O)CCc2nnc(-c3ccc4c(c3)OCO4)o2)C1 (configuration not stated)	none (no result: E-selectin induc)
CCC(=O)C1CCCN(C(=O)CCc2nnc(-c3ccc(C(C)=O)s3)o2)C1 (configuration not stated)	esBAF inh 82.6 (no result: E-selectin induc)
CC1CCCN(C(=O)CCc2nnc(-c3ccc4c(c3)OCO4)o2)C1 (configuration not stated)	esBAF inh 42.1 (no result: PGC1a acetyl inh)
O=C(CCCCC(=O)NN=Cc1ccccc1O)NN=Cc1ccccc1O	C2C12 statin 105.7 (no result: esBAF inh)
COCCCNC(=S)N/N=C/c1ccccc1O	esBAF inh 49.5 (no result: UUG fidelity, PglD inh, E-selectin induc)
CCCCCCCC(=O)N/N=C/c1ccc(Br)cc1	C2C12 statin 133.5 (no result: E-selectin induc)
Cc1noc(C)c1S(=O)(=O)N(C)C[C@H]1Oc2ccc(NC(=O)Nc3ccc(C(F)(F)F)cc3)cc2CC(=O)N([C@@H](C)CO)C[C@H]1C	none
C[C@@H]1CN([C@H](C)CO)C(=O)Cc2cc(NC(=O)C3CCCCC3)ccc2O[C@@H]1CN(C)C(=O)NC1CCCCC1	none
CC(C)(C)NC(=O)c1ccc2c(c1)C(=O)N(C1CCCCC1)C2=O	esBAF inh 43.3 (no result: E-selectin induc)
O=C(NCCc1ccccc1)[C@H]1[C@H](CO)[C@H]2Cn3c(cccc3=O)[C@@H]1N2CC1CC1	none (no result: UUG fidelity)
O=C1C2C3c4ccccc4C(c4ccccc43)C2c2nc3ccccc3n21 (configuration not stated)	C2C12 statin 114.9 (no result: E-selectin induc)
COC(=O)[C@@H](NC(=O)NC(C)CCc1ccccc1)C(C)C (some centres not stated)	C2C12 statin 93.3 (no result: E-selectin induc)
COC(=O)[C@H](C)NC(=O)NC(C)CCc1ccccc1 (some centres not stated)	none (no result: E-selectin induc)
CCOCCc1nnc(NC(=O)C(CC)c2ccccc2)s1 (configuration not stated)	C2C12 statin 116.1 (no result: E-selectin induc)
COc1ccccc1N=Nc1ccc(O)c2ncccc12	esBAF inh 64.3
CCCCCCOc1ccc(C(CC(N)=O)C(=O)O)cc1 (configuration not stated)	C2C12 statin 107.2, E-selectin induc 79.7
CCCCCCOc1ccc(C(CC(=O)NC)C(=O)O)cc1 (configuration not stated)	none (no result: E-selectin induc)
Cc1cc(=S)[nH]c2c(C)cccc12	C2C12 statin 74.2 (no result: E-selectin induc)
Cc1[nH]c2c(C)cccc2c(=O)c1Br	none (no result: E-selectin induc)
COC(=O)C[C@@H]1CC[C@H]2[C@@H](COC[C@@H](O)CN2C(=O)Nc2ccccc2OC)O1	none (no result: UUG fidelity)
CCC(CCC(=O)Nc1ccn(-c2ccccc2)n1)C(=O)O (configuration not stated)	C2C12 statin 120.8 (no result: E-selectin induc)
CCCC(CCC(=O)Nc1ccn(-c2ccccc2)n1)C(=O)O (configuration not stated)	none (no result: C2C12 statin, UUG fidelity, esBAF inh, PglD inh, E-selectin induc)
Cc1cccc(CS(=O)(=O)c2nnc([C@H](Cc3ccccc3)NC(=O)OC(C)(C)C)o2)c1	PGC1a acetyl inh 59.8 (no result: E-selectin induc)
CCC(c1nc2ccccc2c(=O)n1CCN1CCOCC1)N1C(=O)c2ccccc2C1=O (configuration not stated)	C2C12 statin 140.7 (no result: E-selectin induc)
CC[C@H](C)[C@@H]1OC(=O)[C@@H](C)[C@@H](CC)NC(=O)[C@H](C)N(C)C(=O)C(C)(C)C(=O)C(C)NC(=O)[C@H](Cc2ccccc2)N(C)C(=O)[C@H](C(C)C)N(C)C(=O)CNC(=O)[C@H](CC(C)C)N(C)C(=O)CNC1=O (some centres not stated)	PGC1a acetyl inh 76.1 (no result: E-selectin induc)
C/C(=N/NS(=O)(=O)c1ccc(C)cc1)c1c(O)c2ccccc2oc1=O	none
CCCCCN=C(C)c1c(O)c2ccccc2oc1=O	esBAF inh 58.2 (no result: E-selectin induc)
CN(CC(=O)Nc1ccc(F)cc1)CC(=O)N1CCc2ccccc21	none
CN(CC(=O)Nc1cccc(F)c1)CC(=O)N1CCc2ccccc21	E-selectin induc 182.0 (no result: PGC1a acetyl inh)
C[C@@H]1CN([C@H](C)CO)C(=O)c2cc(NS(=O)(=O)c3ccc(F)cc3)ccc2O[C@@H]1CN(C)C(=O)Nc1ccc(C(F)(F)F)cc1	none
C[C@@H]1CCCCO[C@@H](CN(C)Cc2ccccc2)[C@H](C)CN([C@@H](C)CO)C(=O)c2cc(NC(=O)Nc3ccc(F)cc3)ccc2O1	none (no result: C2C12 statin)
O=C(NCCCCNC(=O)c1ccc(Cl)s1)c1ccc(Cl)s1	C2C12 statin 108.4 (no result: E-selectin induc)
O=C(NCCCCCCNC(=O)c1ccc(Br)s1)c1ccc(Br)s1	none (no result: E-selectin induc)
O=C(NCCc1ccc(Cl)cc1)c1ccc(Br)s1	esBAF inh 64.3 (no result: PGC1a acetyl inh)
C[C@H](CO)N1C[C@H](C)[C@@H](CN(C)C(=O)CCCN(C)C)OCCCC[C@H](C)Oc2ccc(NC(=O)Cc3ccccc3)cc2C1=O	none (no result: C2C12 statin, E-selectin induc)
C[C@@H]1CN([C@H](C)CO)C(=O)c2cc(-c3ccc(F)cc3)cnc2O[C@@H]1CN(C)C(=O)NC1CCCC1	none
COc1ccc(S(=O)(=O)Nc2ccc3c(c2)CC(=O)N([C@H](C)CO)C[C@H](C)[C@H](CN(C)Cc2ccncc2)O3)cc1	none
COc1ccc(/C=C/c2ccc3ccccc3[n+]2C)cc1OC	esBAF inh 55.0 (no result: E-selectin induc)
CC(=O)Oc1ccccc1/C=C/c1ccc2ccccc2[n+]1C	esBAF inh 65.3 (no result: E-selectin induc)
CN(CCCS(=O)(=O)[O-])c1ccc(/C=C/c2ccc3ccccc3[n+]2C)cc1	none
COc1ccccc1/C=C/c1nc2ccc(OC(C)=O)cc2c(=O)o1	PGC1a acetyl inh inconclusive (no result: E-selectin induc)
COCC(=O)N(C)C[C@@H]1Oc2cc(-c3ccc(F)cc3)ccc2S(=O)(=O)N([C@H](C)CO)C[C@H]1C	E-selectin induc 57.8!
C[C@@H]1CN([C@H](C)CO)S(=O)(=O)c2ccc(-c3ccccc3)cc2O[C@H]1CN(C)S(C)(=O)=O	E-selectin induc 57.6
COCC(=O)N(C)C[C@H]1Oc2cc(-c3ccc(F)cc3)ccc2S(=O)(=O)N([C@@H](C)CO)C[C@@H]1C	none
C[C@H](CO)N1C[C@H](C)[C@H](CN(C)C(=O)c2ccc3c(c2)OCO3)Oc2cc(-c3ccccc3)ccc2S1(=O)=O	E-selectin induc 108.5 (no result: UUG fidelity)
COc1ccc2c3c(n(C)c2c1)[C@H](CO)N(S(C)(=O)=O)CC31CCN(C(=O)Nc2cccc(F)c2)CC1	none (no result: C2C12 statin, UUG fidelity, esBAF inh, PglD inh)
